Article PMC8526398 (Bioorganic & medicinal chemistry letters, 2021)

Chains of the proteins cited; added tags and fusions are not shown. Residues count along the entry.
UniProt P62993, whole entry: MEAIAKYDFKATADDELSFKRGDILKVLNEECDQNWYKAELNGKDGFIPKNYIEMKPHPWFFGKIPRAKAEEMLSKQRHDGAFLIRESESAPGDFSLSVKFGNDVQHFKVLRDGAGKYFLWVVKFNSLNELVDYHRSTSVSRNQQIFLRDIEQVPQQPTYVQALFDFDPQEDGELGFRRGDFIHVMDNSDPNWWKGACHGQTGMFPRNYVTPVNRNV
UniProt P62993, 60-152 limits assumed: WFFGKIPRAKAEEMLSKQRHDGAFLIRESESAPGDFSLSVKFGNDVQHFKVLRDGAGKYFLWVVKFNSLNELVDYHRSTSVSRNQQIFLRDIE

Assays:
[1] = target: full-length human GRB2 (EGFR/GRB2 PPI) (Homo sapiens, UniProt P62993); assay type: binding; settings: comparison of Ki values in the parallel assays
GRB2 SH2 domain = GRB2 SH2 domain (Homo sapiens, UniProt P62993); experiment: Differential scanning fluorimetry; assay type: binding; settings: DSF, Tm of the SH2 domain in absence and presence of inhibitor

| Structure (SMILES) | fold more potent than the EGFR1068 phosphopeptide 14-mer [1] [fold] | ΔTm (increase in thermostability of GRB2) (GRB2 SH2 domain) [°C] |
| --- | --- | --- |
| NC(=O)C[C@@H]1NC(=O)C2(CCCCC2)NC(=O)C[C@@H](c2ccc(CC(=O)O)cc2)/C=C/C[C@@H](Cc2cccc3ccccc23)CNC1=O [Compound 7] | 2 | 8.6 |
| NC(=O)C[C@@H]1NC(=O)C2(CCCCC2)NC(=O)C[C@@H](c2ccc(CP(=O)(O)O)cc2)/C=C/C[C@@H](Cc2cccc3ccccc23)CNC1=O [Compound 3] | – | 16.5 |
